The results in this text go back to patent publication US12061183B2, “Methods of assessing suitability of use of pharmaceutical compositions of albumin and poorly water soluble drug” (Abraxis BioScience, LLC, priority 2015, dated 2024).

This data set can be described thus: Percentage of albumin monomers, dimers, oligomers and polymers in fractions of the rapamycin/albumin nanoparticle composition. It is filed as physicochemical. The conditions noted are these: for Dimer: percentage of albumin dimers in 4% HA solution; for Monomer: percentage of albumin monomers in 4% HA solution; for Unnamed Oligomer: percentage of albumin oligomers in 4% HA solution; for Polymer: percentage of albumin polymers in 4% HA solution. As for the experimental part:
A composition comprising nanoparticles comprising rapamycin and albumin was prepared and reconstituted as described above to form a reconstituted suspension. A sample of the reconstituted suspension was ultracentrifuged as described above to form a supernatant and a pellet containing the nanoparticles.

In the case of 4% HA Stock Solution, the Dimer came out at 1.9%, the Monomer stood at 95.2%, the “Unnamed Oligomer” value was 0.3% and the Polymer came to 2.5%.

With 4% HA System suitability, the Dimer is listed as 1.9%, the Monomer was 97.2%, the “Unnamed Oligomer” value came out at 0.3% and the Polymer was 0.7%.
